Patent US11236106B2, “Cycloalkane-1,3-diamine derivative” (Daiichi Sankyo Company, Limited, priority 2018, dated 2022)
Where a name gives a salt, the structure may show the parent alone. Read-outs that look alike come from different tables or passages of the source.

Experiments:
Test in all cases: cells
Details in all cases: Homo sapiens
[1] = test system: MOLM-13 cells
[2] = test system: K562 cells
[3] = test system: MV-4-11 cells
[4] = MOLM-13, 72 h, read-out: GI50 (μM) Day3 MOLM-13, MOLM-13, Day3
[5] = MOLM-13, 168 h, read-out: GI50 (μM) Day7 MOLM-13, MOLM-13, Day7
[6] = K562, 72 h, read-out: GI50 (μM) Day3 K562
[7] = K562, 168 h, read-out: GI50 (μM) Day7 K562
[8] = MV4-11, 72 h, read-out: GI50 (μM) Day3 MV4;11, MV4;11, Day3
[9] = MV4-11, 168 h, read-out: GI50 (μM) Day7 MV4;11, MV4;11, Day7

SMILES: CNc1nc(N(C)[C@H]2C[C@@H](NCc3ccc(Nc4cccnc4)cc3)C[C@@H]2O)c2cc(CC(F)(F)F)sc2n1 [Example 54, (1S,2S,4R)-2-{methyl[2-(methylamino)-6-(2,2,2-trifluoroethyl)thieno[2,3-d]pyrimidin-4-yl]amino}-4-[({4-[(pyridin-3-yl)amino]phenyl}methyl)amino]cyclopentan-1-ol hydrochloride]
- GI50 [1, 4]: 1.33 µM
- GI50 [1, 5]: 0.0579 µM
- GI50 [2, 6]: 3.13 µM
- GI50 [2, 7]: 2.18 µM
- GI50 [3, 8]: 0.0669 µM
- GI50 [3, 9]: 0.0279 µM

SMILES: C=CC(=O)Nc1cccc(Nc2ccc(CN[C@H]3CC[C@@H](N(C)c4nc(NC)nc5sc(CC(F)(F)F)cc45)C3)cc2)c1 [Example 55, N-{3-[4-({[(1S,3R)-3{methyl[2-(methylamino)-6-(2,2,2-trifluoroethyl)thieno[2,3-d]pyrimidin-4-yl]amino}cyclopentyl]amino}methyl)anilino]phenyl}prop-2-enamide hydrochloride]
- GI50 [1, 4]: 0.614 µM
- GI50 [1, 5]: 0.221 µM
- GI50 [2, 6]: 1.9 µM
- GI50 [2, 7]: 1.32 µM
- GI50 [3, 8]: 0.149 µM
- GI50 [3, 9]: 0.0895 µM

SMILES: CN(c1ncnc2sc(CC(F)(F)F)cc12)[C@@H]1CC[C@H](NCc2ccc(N3CCc4ccccc43)cc2)C1 [Example 56, (1R,3S)-N^3-{[4-(2)-3-dihydro-1H-indol-1-yl)phenyl]methyl}-N^1-methyl-N^1-[6-(2,2,2-trifluoroethyl)thieno[2,3-d]pyrimidin-4-yl]cyclopentane-1,3-diamine hydrochloride]
- GI50 [1, 4]: 1.02 µM
- GI50 [1, 5]: 1.07 µM
- GI50 [2, 6]: 1.26 µM
- GI50 [2, 7]: 0.809 µM
- GI50 [3, 8]: 0.769 µM
- GI50 [3, 9]: 0.468 µM

SMILES: Cc1ncc(-c2ccc(CN[C@H]3CC[C@@H](N(C)c4ncnc5sc(CC(F)(F)F)cc45)C3)cc2)cc1OC(F)F [Example 58, (1R,3S)-N^3-({4-[5-(difluoromethoxy)-6-methylpyridin-3-yl]phenyl}methyl)-N^1-methyl-N^1-[6-(2,2,2-trifluoroethyl)thieno[2,3-d]pyrimidin-4-yl]cyclopentane-1,3-diamine hydrochloride]
- GI50 [1, 4]: 0.804 µM
- GI50 [1, 5]: 0.485 µM
- GI50 [2, 6]: 1.03 µM
- GI50 [2, 7]: 0.493 µM
- GI50 [3, 8]: 0.399 µM
- GI50 [3, 9]: 0.23 µM

SMILES: CN(c1ncnc2sc(CC(F)(F)F)cc12)[C@@H]1CC[C@H](NCc2ccc(S(=O)(=O)N3CCCCCC3)cc2)C1 [Example 59, (1R,3S)-N^3-{[4-(azepane-1-sulfonyl)phenyl]methyl)-N^1methyl-N^1-[6-(2,2,2-trifluoroethyl)thieno[2,3-d]pyrimidin-4-yl]cyclopentane-1,3-diamine hydrochloride]
- GI50 [1, 4]: 1.22 µM
- GI50 [1, 5]: 1.13 µM
- GI50 [2, 6]: 1.75 µM
- GI50 [2, 7]: 1.05 µM
- GI50 [3, 8]: 0.894 µM
- GI50 [3, 9]: 0.451 µM

SMILES: CNc1nc(N(C)[C@H]2C[C@@H](NCc3ccc(-n4ccnc4)cc3)C[C@H]2O)c2cc(CC(F)(F)F)sc2n1 [Example 61, (1R,2S,4R)-4-({[4-(1H-imidazol-1-yl)phenyl]methyl}amino)-2-{methyl[2-(methylamino)-6-(2,2,2-trifluoroethyl)thieno[2,3-d]pyrimidin-4-yl]amino}cyclopentan-1-ol hydrochloride]
- GI50 [1, 4]: 0.974 µM
- GI50 [1, 5]: 0.129 µM
- GI50 [2, 6]: 6.25 µM
- GI50 [2, 7]: 5.74 µM
- GI50 [3, 8]: 0.11 µM
- GI50 [3, 9]: 0.0472 µM
